Laboratory results taken from patent publication US10005824B2, “Selective PYY compounds and uses thereof” (Novo Nordisk A/S, priority 2015, dated 2018).

By UniProt entry, the sequences of proteins in these tests, tags left out. Where a name states a change or a piece, a line headed by the entry shows the natural chain unless it says otherwise.
UniProt P25929, whole entry: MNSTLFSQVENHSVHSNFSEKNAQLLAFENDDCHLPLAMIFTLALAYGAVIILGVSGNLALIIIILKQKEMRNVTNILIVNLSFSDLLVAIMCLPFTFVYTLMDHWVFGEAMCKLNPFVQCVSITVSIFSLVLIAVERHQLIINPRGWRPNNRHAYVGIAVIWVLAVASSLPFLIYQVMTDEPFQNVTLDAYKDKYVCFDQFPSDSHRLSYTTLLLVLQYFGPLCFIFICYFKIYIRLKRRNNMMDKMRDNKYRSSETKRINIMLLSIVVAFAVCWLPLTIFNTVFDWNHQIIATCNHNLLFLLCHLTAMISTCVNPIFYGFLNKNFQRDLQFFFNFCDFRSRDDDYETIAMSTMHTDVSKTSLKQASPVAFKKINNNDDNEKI
UniProt P50391: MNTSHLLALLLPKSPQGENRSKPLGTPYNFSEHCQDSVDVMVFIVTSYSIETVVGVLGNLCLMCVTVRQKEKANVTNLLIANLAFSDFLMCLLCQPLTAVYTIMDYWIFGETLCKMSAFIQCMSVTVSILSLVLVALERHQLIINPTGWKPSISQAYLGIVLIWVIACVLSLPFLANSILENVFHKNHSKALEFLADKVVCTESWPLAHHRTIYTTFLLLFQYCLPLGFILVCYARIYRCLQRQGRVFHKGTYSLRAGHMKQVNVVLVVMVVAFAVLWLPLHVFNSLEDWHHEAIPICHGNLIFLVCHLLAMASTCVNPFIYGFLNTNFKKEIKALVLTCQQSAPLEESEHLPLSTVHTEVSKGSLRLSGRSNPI

How the values were obtained:
human Y1 receptor = molecular target: T1, human Y1 receptor (Homo sapiens, UniProt P25929); test: Scintillation proximity assay (SPA) receptor binding, Y1; settings: read-out: Y1 Ki; membranes of BHK-21 cells, [125I]-PYY(1-36)
T1 construct: expressed in transfected cells; host or cells: BHK-21 clone 6-482-8, IPTG-induced (membrane preparation)
Description: (§1) The purpose of this example is to test the in vitro binding of the PYY compounds to the Y1, Y2, Y4 and Y5 receptor subtypes, respectively. The receptor binding affinity is a measure of affinity of a compound for the human Y1, Y2, Y4 and Y5 receptor subtypes, respectively.
(§2) Scintillation Proximity Assay (SPA)
(§3) NPY-Receptor Expressing Cell Lines.
(§4) All cells were cultured at +37° C. in a humidified atmosphere with 5% CO2. […] CHO-K1 cells stably expressing the human Y2 receptor (P49146, NPY2R_HUMAN, Uniprot) were cultured in DMEM F-12 with 10% FBS, 1% P/S, 150 μg/ml Hygromycin B and 10 μg/ml Puromycin antibiotic. CHO-K1 cells stably expressing the human Y4 receptor (P50391, NPY4R_HUMAN, Uniprot) were cultured in DMEM F-12 with 10% FBS, 1% P/S, 10 μg/ml Puromycin. HEK-293 cells stably expressing the human Y5 receptor (Q15761, NPY5R_HUMAN, Uniprot) were cultured in DMEM F-12 medium containing 10% FBS, 1% Penicillin-Streptomycin, 250 μg/ml G418 and 1 μg/ml puromycin. […]
(§5) Plates were sealed and incubated at +25° C. for 2 hours in a plate shaker set at 400 rpm and thereafter centrifuged at 1500 rpm for 10 minutes prior to reading of luminescence on a microplate scintillation and luminescence counter. […] Displacement of radioligand was measured as reduction in luminescence and IC50 values were calculated by nonlinear regression analysis of sigmoidal dose-response curves.

human Y4 receptor = molecular target: T2, human Y4 receptor (Homo sapiens, UniProt P50391); test: Scintillation proximity assay (SPA) receptor binding, Y4; settings: read-out: Y4 Ki; membranes of CHO-K1 cells, [125I]-Pancreatic Polypeptide
T2 construct: expressed in transfected cells; host or cells: CHO-K1 (membrane preparation)
Description: as §1, §2, §3, §4, §5

human Y5 receptor = molecular target: T3, human Y5 receptor (Homo sapiens, UniProt Q15761); test: Scintillation proximity assay (SPA) receptor binding, Y5; settings: read-out: Y5 Ki; membranes of HEK-293 cells, [125I]-PYY(1-36)
T3 construct: expressed in transfected cells; host or cells: HEK-293 (membrane preparation)
T3 sequence (Q15761 1-445): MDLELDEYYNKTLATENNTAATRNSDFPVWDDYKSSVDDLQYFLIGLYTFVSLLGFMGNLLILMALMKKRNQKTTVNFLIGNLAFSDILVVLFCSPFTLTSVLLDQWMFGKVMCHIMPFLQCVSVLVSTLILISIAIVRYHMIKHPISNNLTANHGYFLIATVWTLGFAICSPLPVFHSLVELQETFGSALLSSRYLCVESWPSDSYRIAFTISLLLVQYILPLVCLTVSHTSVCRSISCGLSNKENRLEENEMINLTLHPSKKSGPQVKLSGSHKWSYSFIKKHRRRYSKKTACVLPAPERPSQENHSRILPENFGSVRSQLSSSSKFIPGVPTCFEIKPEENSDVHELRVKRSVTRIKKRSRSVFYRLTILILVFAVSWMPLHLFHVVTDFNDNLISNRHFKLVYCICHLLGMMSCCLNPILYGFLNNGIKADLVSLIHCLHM
Description: as §1, §2, §3, §4, §5

[1] = Pharmacokinetic study in minipigs after i.v. administration; type: in vivo, Göttingen minipigs; settings: terminal half-life, 15 nmol/kg
Description: By terminal half-life is generally meant the period of time it takes to halve a certain plasma concentration, measured after the initial distribution phase.
After minimum 2 weeks of acclimatization two permanent central venous catheters were implemented in vena cava caudalis in each animal. After surgery the animals were in their normal individual pens during the pharmacokinetic experiments.
On day 1 the catheters are coupled to extension tubes, which will be removed at the end of day 1. […] Samples were kept on wet ice until centrifugation (10 min, 4° C., 1942 g).
Plasma concentration-time profiles was analysed by a non-compartmental pharmacokinetics analysis using Phoenix (Pharsight Inc., Mountain View, Calif., USA). Calculations were performed using individual concentration-time values from each animal.

Question: Which results are given for “N{alpha-4}-(3-Methylbutanoyl)-N{Epsilon-7}-[2-[2-[2-[[2-[2-[2-[[(4S)-4-carboxy-4-(15-carboxypentadecanoylamino)butanoyl]amino]ethoxy]ethoxy]acetyl]-amino]ethoxy]ethoxy]acetyl]-[Arg4,Lys7,Gln18,Tyr28,Trp30,Leu31]-PYY(3-36) [Compound 63]”?
Answer: Ki (human Y1 receptor): > 10 µM; Ki (human Y4 receptor): 5.77 µM; Ki (human Y5 receptor): 0.276 µM; Half-life (t½) [1]: 30 h
